Measured values published in patent US20130289023A1, “METHOD FOR TREATING BRAIN TUMOR” (priority 2012, published 2013).

Test system: GBM8401 cells
Test: MTT cell viability assay in GBM8401
Conditions: 10 μM, 72 hr
Procedure: To examine the cytotoxicity of anti-psychotic drugs on malignant glioma, GBM8401 cells were treated with 21 anti-psychotic drugs at 10 μM, respectively, for 72 hr.

In the case of thioridazine, the “cytotoxicity compared with the other anti-psychotic drugs” value is reported as “more effective in cytotoxicity”.
